Screening data (PubChem)
ARFGAP1 inhibitor – inhibitors of rat ARFGAP1 GAP activity, primary screen, biochemical, fluorescence polarization, GDP tracer | 0.26% of 360,000 active | ADP-ribosylation factor GTPase-activating protein 1 (Rattus norvegicus), Q62848 | Arfgap1-stimulated ARF1 GTP hydrolysis, GDP FP detection | inhibition, % at 16.5 µM;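 active means inhibition above a per-plate limit, mean inhibition of low control wells plus 3 SD, cut at about 25% in these data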;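 further: 0% = DMSO wells with enzyme and 100% = wells lacking Arfgap1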
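Material: rat Arfgap1 GAP domain (His6, aa 1-136), purified enzyme. Also added: human ARF1(Δ1-17)-GTP substrate. Compound dosing: 16.5 µM single point, 1.26% DMSO. Timing: enzyme reaction 120 min at 25 °C after 20 min preincubation. Signal: GDP detection by fluorescence polarization. Read-out basis: percent inhibition of GAP-stimulated GDP formation, scaled between DMSO and no-Arfgap1 medians.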
Yeast UUG start – modulators of yeast start codon fidelity, primary screen, whole organism, S. cerevisiae, single point, plate reader | AID 602363, 2012 | actives 0.13% (n = 350,000) | activity score, % at 18.7 µM | S. cerevisiae UUG-firefly luciferase reporter, luminescence/redox ratio;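 active means replicate mean at a twofold rise or more, about +100% in these data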;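 further: firefly luciferase made from a UUG start codon reports start codon fidelity; reporter light over untreated wells divided by growth signal over untreated wells; some hits fall short of that in this replicate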
ASAP1 inh – inhibitors of human ASAP1 ArfGAP activity, primary screen, biochemical, fluorescence polarization | Arf-GAP with SH3 domain, ANK repeat and PH domain-containing protein 1 (Homo sapiens), … | ASAP1-stimulated ARF1 GTP hydrolysis, GDP FP detection | inhibition, % at 16.5 µM | 0.19% of 360,000 active; in the data active means inhibition above about 25%;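 further: 0% = vehicle with enzyme and substrate and 100% = no enzyme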
CendR NRP1 mod – modulators of CendR peptide binding to NRP-1, primary screen, biochemical, fluorescence polarization, uHTS; 0.85% of 360,000 active; FAM-RPARPAR peptide binding to NRP-1; inhibition, % at 25 µM; AID 602438, 2012;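 active means inhibition or corrected inhibition above about 18%, plus a signal ratio from 0.5 to 1.5, limit read from the data, passing the limit was not always enough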
MC4R antag cAMP – MC4R antagonists of cAMP signaling, primary screen, cell-based, TR-FRET, antagonist arm of biased-ligand search; Melanocortin receptor 4 (Homo sapiens), P32245; MC4R-expressing cells, MTII-stimulated cAMP, LANCE TR-FRET; inhibition, % at 6.5 µM; 0.48% of 360,000 active; AID 540295, 2011;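 active means inhibition above its plate's cutoff, the mean of tested wells on that plate plus 3 SD, cut at about 29% in these data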;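 further: 0% = Melanotan II alone and 100% = Melanotan II plus saturating MCL0020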
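material = U2OS cells stably expressing human melanocortin 4 receptor (MC4R) | also added = Melanotan II challenge | dosing = single nominal compound dose of 6.5 µM | detection = TR-FRET with Eu-cAMP and labeled anti-cAMP, 671 nm | replication = singlicate | timing = compound 30 min, challenge 1 h, detection 1 h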
MC4R barr agon – MC4R agonists recruiting beta-arrestin, primary screen, cell-based, luminescence, agonist arm of biased-ligand search; U2OS MC4R beta-arrestin complementation; percent of melanotan II response, DMSO zero; activation, % at 8.9 µM; 0.98% of 360,000 active;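 active means activation above a per-plate cutoff, the mean activation of sample wells on that plate plus 3 SD, cut at about 8% in these data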
The depositor's hits bear a star; · = not tested or not shown. Shown are actives, neighbours in structure and some others; about 2.3% of the full set was active somewhere.

The chains behind the UniProt entries cited, without tags or fusion partners. Residues count along the entry.
ADP-ribosylation factor GTPase-activating protein 1 (Rattus norvegicus), Q62848, UniProt Q62848, 1-136 limits assumed: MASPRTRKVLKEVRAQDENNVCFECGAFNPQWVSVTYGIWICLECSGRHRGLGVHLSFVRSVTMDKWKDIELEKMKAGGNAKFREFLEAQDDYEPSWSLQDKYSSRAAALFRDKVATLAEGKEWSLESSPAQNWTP
ADP-ribosylation factor GTPase-activating protein 1 (Rattus norvegicus), Q62848, UniProt Q62848, whole entry, looked up: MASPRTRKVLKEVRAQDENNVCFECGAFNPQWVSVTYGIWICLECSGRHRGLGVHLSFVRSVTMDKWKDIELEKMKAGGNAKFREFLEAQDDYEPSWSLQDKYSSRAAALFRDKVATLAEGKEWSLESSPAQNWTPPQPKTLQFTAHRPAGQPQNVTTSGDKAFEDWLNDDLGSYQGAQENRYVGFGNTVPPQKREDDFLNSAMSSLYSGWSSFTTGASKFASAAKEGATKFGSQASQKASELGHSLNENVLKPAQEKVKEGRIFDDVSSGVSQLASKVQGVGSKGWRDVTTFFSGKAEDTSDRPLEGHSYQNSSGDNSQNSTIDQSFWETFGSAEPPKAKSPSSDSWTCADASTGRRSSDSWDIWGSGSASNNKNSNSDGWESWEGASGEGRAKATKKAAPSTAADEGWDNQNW
Melanocortin receptor 4 (Homo sapiens), P32245, UniProt P32245, whole entry, looked up: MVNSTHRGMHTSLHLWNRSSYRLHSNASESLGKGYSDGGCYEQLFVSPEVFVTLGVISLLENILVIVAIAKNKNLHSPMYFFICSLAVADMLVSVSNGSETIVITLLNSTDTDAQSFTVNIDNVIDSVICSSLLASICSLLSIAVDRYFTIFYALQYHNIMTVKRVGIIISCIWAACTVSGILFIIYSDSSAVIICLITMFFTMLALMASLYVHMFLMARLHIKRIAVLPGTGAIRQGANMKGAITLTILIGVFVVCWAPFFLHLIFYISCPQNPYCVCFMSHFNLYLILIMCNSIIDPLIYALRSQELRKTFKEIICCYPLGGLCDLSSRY

Letter code: A = ARFGAP1 inhibitor; B = Yeast UUG start; C = ASAP1 inh; D = CendR NRP1 mod; E = MC4R antag cAMP; F = MC4R barr agon
[1] CCOC(=O)/C=C(\C)Sc1cc(O)c2ccccc2c1O
  A: 21.1 | B: -27.4 | C: 29.2* | D: 22.5 | E: -5.2 | F: -1.8

[2] CCOC(=O)/C=C(\C)Sc1cc(=O)oc2ccccc12
  A: 14.1 | B: 1.6 | C: 4.3 | D: 2.5 | E: -10.2 | F: 0.6

[3] CC1CCN(S(=O)(=O)c2ccc3c(c2)C(=NO)c2cc(S(=O)(=O)N4CCC(C)CC4)ccc2-3)CC1
  A: 8.9 | B: -3.9 | C: -0.9 | D: -13.8 | E: 2.7 | F: 34.1*

[4] O=S(=O)(c1ccc2c(c1)C(=NO)c1cc(S(=O)(=O)N3CCCCC3)ccc1-2)N1CCCCC1
  A: -7.8 | B: 1.5 | C: 5.8 | D: 8.7 | E: 25.6 | F: -2.0

[5] C[C@H]1CCCCO[C@@H](CN(C)C(=O)CCC(F)(F)F)[C@@H](C)CN([C@@H](C)CO)C(=O)c2cc(NC(=O)NC3CCCCC3)ccc2O1
  A: · | B: 44.9 | C: · | D: · | E: · | F: ·

[6] CCCNC(=O)NC[C@H]1[C@H](c2ccc(C3=CCCC3)cc2)[C@H](CO)N1C(C)=O
  A: · | B: 1.4 | C: · | D: · | E: · | F: ·

[7] CC(C)CC#Cc1ccc2c(c1)O[C@H](CN(C)CC1CCOCC1)[C@H](C)CN([C@@H](C)CO)S2(=O)=O
  A: · | B: -7.2 | C: · | D: · | E: · | F: ·

[8] COC(=O)CCC(=O)OC1(C)C(=O)C=C2C=C(C3CC3)N(C3CC3)C=C2C1=O (centres undefined)
  A: 1.8 | B: -21.2 | C: 5.9 | D: 13.6 | E: 4.1 | F: -0.6

[9] CCCCC1=CC2=CC(=O)C(C)(OC(=O)CC)C(=O)C2=CN1Cc1ccco1 (centres undefined)
  A: · | B: -19.3 | C: · | D: 10.0 | E: 9.1 | F: -0.5

[10] COCCN1C=C2C(=O)C(C)(OC(=O)CCC(=O)OC)C(=O)C=C2C=C1C1CC1 (centres undefined)
  A: · | B: -10.4 | C: · | D: 29.3* | E: 4.7 | F: 0.1

[11] COC(=O)CCC(=O)OC1(C)C(=O)C=C2C=C(C3CC3)N(Cc3ccco3)C=C2C1=O (centres undefined)
  A: 6.0 | B: -2.0 | C: 10.7 | D: 35.6* | E: 7.7 | F: -2.8

[12] CC(C)NC(=O)N[C@H]1C=C[C@H](CC(=O)O)O[C@@H]1CO
  A: · | B: -1.6 | C: · | D: · | E: · | F: ·

[13] COc1ccc(NC(=O)N(C)C[C@H]2OCCCC[C@@H](C)Oc3ccc(NC(=O)CCCN(C)C)cc3C(=O)N([C@@H](C)CO)C[C@H]2C)cc1
  A: · | B: 19.3 | C: · | D: · | E: · | F: ·

[14] COc1ccc(C(NC(=O)C(C)(C)C)NC(=O)C(C)(C)C)cc1
  A: -4.7 | B: -0.7 | C: -2.9 | D: 20.1* | E: 10.3 | F: -0.8

[15] COc1ccc([C@@H](NC(=O)OC(C)(C)C)C(=O)OC(C)(C)C)cc1
  A: 0.2 | B: -10.3 | C: 2.0 | D: 22.7 | E: 1.6 | F: -0.8

[16] CN1C(=O)c2cc(NC(=O)c3ccc(F)cc3)ccc2OC[C@H]2O[C@@H](CC(=O)N3CCOCC3)CC[C@H]21
  A: · | B: 3.4 | C: · | D: · | E: · | F: ·

[17] CCC(=O)NCCCCNC(=O)CC
  A: 2.3 | B: -7.9 | C: 3.8 | D: 32.8* | E: -3.0 | F: 2.0

[18] CO[C@H]1CN(C)C(=O)c2cc(NS(C)(=O)=O)ccc2OC[C@H](C)N(S(C)(=O)=O)C[C@H]1C
  A: · | B: 2.1 | C: · | D: · | E: · | F: ·

[19] CCNC(=O)C[C@H]1C=C[C@@H](NC(=O)C2CCOCC2)[C@H](CO)O1
  A: · | B: 0.5 | C: · | D: · | E: · | F: ·

[20] N/C(=N\OC(=O)c1cccs1)C1(c2ccc(Cl)cc2Cl)CC1
  A: 1.4 | B: -5.8 | C: 13.7 | D: 36.7* | E: 1.7 | F: 0.0

[21] N/C(Cc1ccc(Cl)c(Cl)c1)=N\OC(=O)c1cccs1
  A: -0.5 | B: -9.7 | C: -3.0 | D: 6.8 | E: -6.8 | F: 8.6*

[22] Cc1noc(C)c1S(=O)(=O)Nc1ccc2c(c1)CC(=O)N([C@H](C)CO)C[C@H](C)[C@@H](CN(C)Cc1ccc(Cl)c(Cl)c1)O2
  A: · | B: 14.3 | C: · | D: · | E: · | F: ·

[23] CC(C)NC(=O)N(C)C[C@@H]1Oc2ccc(NC(=O)Nc3ccc4c(c3)OCO4)cc2CC(=O)N([C@H](C)CO)C[C@H]1C
  A: · | B: -0.4 | C: · | D: · | E: · | F: ·

[24] C=CCn1c(SCc2ccc(Cl)cc2)nc2c1c(=O)[nH]c(=O)n2C
  A: -5.1 | B: -19.0 | C: 2.6 | D: 25.6* | E: 0.3 | F: -1.1

[25] C=CCn1c(SCc2ccc(F)cc2)nc2c1c(=O)[nH]c(=O)n2C
  A: -7.5 | B: -8.4 | C: 5.8 | D: 1.6 | E: 4.0 | F: 0.6

Reprinted from the listing for reference:
Letter code: A = ARFGAP1 inhibitor; B = Yeast UUG start; C = ASAP1 inh; D = CendR NRP1 mod; E = MC4R antag cAMP; F = MC4R barr agon
[1] CCOC(=O)/C=C(\C)Sc1cc(O)c2ccccc2c1O
  A: 21.1 | B: -27.4 | C: 29.2* | D: 22.5 | E: -5.2 | F: -1.8

[2] CCOC(=O)/C=C(\C)Sc1cc(=O)oc2ccccc12
  A: 14.1 | B: 1.6 | C: 4.3 | D: 2.5 | E: -10.2 | F: 0.6

[3] CC1CCN(S(=O)(=O)c2ccc3c(c2)C(=NO)c2cc(S(=O)(=O)N4CCC(C)CC4)ccc2-3)CC1
  A: 8.9 | B: -3.9 | C: -0.9 | D: -13.8 | E: 2.7 | F: 34.1*

(more compounds)
Letter code: A = ARFGAP1 inhibitor; B = Yeast UUG start; C = ASAP1 inh; D = CendR NRP1 mod; E = MC4R antag cAMP; F = MC4R barr agon
[26] COc1ccc(F)cc1-c1cc(C(=O)NCc2cccc(C(F)(F)F)c2)[nH]n1
  A: 4.9 | B: -7.6 | C: 0.8 | D: 18.0* | E: 15.0 | F: 1.6

[27] CC(C)Oc1ccc(F)cc1-c1cc(C(=O)NCc2ccc(F)cc2)[nH]n1
  A: 5.1 | B: -0.4 | C: 2.3 | D: 27.4* | E: 4.3 | F: 1.3

[28] CO[C@@H]1CN(C)C(=O)c2cc(NC(=O)c3ccc(F)cc3)ccc2OC[C@H](C)N(C(C)=O)C[C@H]1C
  A: · | B: -11.2 | C: · | D: · | E: · | F: ·

[29] N#CC1=C(N)NC(SCc2ccc(Cl)cc2)=C(C#N)C12CCCCC2
  A: 15.2 | B: -5.3 | C: 6.9 | D: 29.1* | E: 11.3 | F: -0.4

[30] N#CC1=C(N)NC(SCc2ccc(Br)cc2)=C(C#N)C12CCCCC2
  A: 4.4 | B: -16.6 | C: -4.2 | D: -2.2 | E: 3.1 | F: 0.3

[31] O=C(Cc1ccccn1)N[C@H]1C=C[C@@H](CC(=O)N2CCCCC2)O[C@@H]1CO
  A: · | B: -11.7 | C: · | D: · | E: · | F: ·

[32] Cc1cc(C2(c3ccc(O)c(C)c3)C(=O)Nc3ccccc32)ccc1O
  A: 4.0 | B: · | C: -19.0 | D: -3.6 | E: 9.5 | F: 7.9

[33] Cc1cccc2c1NC(=O)C2(c1ccc(O)cc1)c1ccc(O)cc1
  A: 16.2 | B: -3.5 | C: 14.1 | D: 12.8 | E: -18.0 | F: 86.8*

[34] CC(=O)c1ccc(OCC(=O)Nc2nnc(C3CC3)s2)cc1
  A: 2.4 | B: 2.8 | C: 4.3 | D: 29.0* | E: -0.5 | F: 1.0

[35] O=C(Cn1ccc(NC(=O)OCc2ccccc2)nc1=O)NCCCn1ccnc1
  A: 3.1 | B: -0.4 | C: -0.9 | D: 32.9* | E: 3.5 | F: -2.2

[36] O=C(Cn1ccc(NC(=O)OCc2ccccc2)nc1=O)NCCCc1ccccc1
  A: 3.1 | B: -16.6 | C: -1.0 | D: -9.7 | E: 12.2 | F: -0.9

[37] Cc1ccc(S(=O)(=O)N(C)C[C@@H]2Oc3ccc(NC(=O)Nc4ccc(F)cc4)cc3CC(=O)N([C@@H](C)CO)C[C@H]2C)cc1
  A: · | B: -0.5 | C: · | D: · | E: · | F: ·

[38] CCOC(=O)Cn1nc(-c2ccccc2)c2cnc3ccc(CC)cc3c21
  A: -5.8 | B: -3.2 | C: -2.8 | D: 2.7 | E: 22.9 | F: 8.4*

[39] CC(C)CC#Cc1ccc2c(c1)O[C@@H](CN(C)S(=O)(=O)c1cccc(F)c1)[C@@H](C)CN([C@H](C)CO)S2(=O)=O
  A: · | B: 1.1 | C: · | D: · | E: · | F: ·

[40] C[C@H](CO)N1C[C@H](C)[C@@H](CN(C)C(=O)Cc2ccccc2)Oc2ncc(-c3ccccc3)cc2C1=O
  A: · | B: -5.4 | C: · | D: · | E: · | F: ·

[41] Cc1ccc(-c2oc3ccccc3c(=O)c2OCC(=O)O)cc1
  A: -0.7 | B: -17.7 | C: -15.6 | D: 19.1* | E: 4.5 | F: 0.1

[42] Cn1cnc(CCNC(=O)C[C@H]2CC[C@H]3[C@@H](COC[C@H](O)CN3C(=O)Nc3ccc(F)cc3)O2)c1
  A: · | B: -14.8 | C: · | D: · | E: · | F: ·
